# Measurements published in PubChem BioAssay AID2553 (Johns Hopkins Ion Channel Center, 2010).
# The chains behind the UniProt entries cited, without tags or fusion partners.
# UniProt Q61143, whole entry: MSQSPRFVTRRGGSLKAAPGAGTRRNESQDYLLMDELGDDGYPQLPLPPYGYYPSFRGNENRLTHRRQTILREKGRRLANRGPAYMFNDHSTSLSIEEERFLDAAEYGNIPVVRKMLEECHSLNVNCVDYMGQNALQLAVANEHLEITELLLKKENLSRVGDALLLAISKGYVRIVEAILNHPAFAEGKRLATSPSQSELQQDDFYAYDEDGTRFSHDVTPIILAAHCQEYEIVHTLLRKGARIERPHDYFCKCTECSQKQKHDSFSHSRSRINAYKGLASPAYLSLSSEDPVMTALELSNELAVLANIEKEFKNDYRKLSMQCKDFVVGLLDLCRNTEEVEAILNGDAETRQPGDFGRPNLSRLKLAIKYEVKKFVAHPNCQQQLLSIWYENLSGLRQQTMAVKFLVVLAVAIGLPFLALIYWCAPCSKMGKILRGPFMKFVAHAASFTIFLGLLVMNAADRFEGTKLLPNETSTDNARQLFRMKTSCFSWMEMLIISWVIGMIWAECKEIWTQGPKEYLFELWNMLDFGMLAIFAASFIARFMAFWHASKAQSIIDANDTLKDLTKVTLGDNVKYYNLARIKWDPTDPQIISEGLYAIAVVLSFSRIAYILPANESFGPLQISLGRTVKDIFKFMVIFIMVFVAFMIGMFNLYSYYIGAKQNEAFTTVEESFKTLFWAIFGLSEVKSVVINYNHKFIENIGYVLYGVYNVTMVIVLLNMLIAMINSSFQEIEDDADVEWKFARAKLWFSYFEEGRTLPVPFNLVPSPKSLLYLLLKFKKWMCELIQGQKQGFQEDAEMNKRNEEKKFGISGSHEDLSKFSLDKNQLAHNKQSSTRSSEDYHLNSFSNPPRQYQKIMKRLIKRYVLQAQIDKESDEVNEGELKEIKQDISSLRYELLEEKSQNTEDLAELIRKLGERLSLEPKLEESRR
# The list shows a part of the results, in another mix than the full data. Active and inactive are the calls of the source.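 How the source made its calls: active means B-score under library mean minus 3 SD, initial fluorescence not abnormally high, positive integrated signal ratio; inactive means the rest.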
# Molecular target: Short transient receptor potential channel 6 (Mus musculus) (UniProt Q61143)
# Test: mouse TRPC6 channel inhibitors, primary screen, cell-based, HEK293, membrane potential dye (AID 2553);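 on B-score: B-score derived from integrated fluorescence ratio over the kinetic read; more negative B-score means stronger inhibition of depolarization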
# Details: ACh-evoked depolarization, at 10 µM; hits give low values
Compound,outcome,B-score
O=C(NCC1(N2CCCCC2)CCCCC1)c1cccc(C(F)(F)F)c1,inactive,
O=C(NCC1(N2CCOCC2)CCCCC1)c1cc(=O)[nH]c2ccccc12,inactive,
COc1cc(C(=O)NCC2(N3CCCCC3)CCCCC2)ccc1OC(F)F,inactive,
COc1ccc(NC2CCN(C(=O)OC(C)(C)C)CC2)cc1,inactive,
CN1CCN(CCOC(=O)C(O)(c2ccccc2)c2ccccc2)CC1,,active: -6.29
O=C(NCC1(N2CCCCC2)CCCCC1)c1ccc(OC(F)F)cc1,inactive,
CCN1CCC(Nc2ccc(Cl)cc2)CC1,inactive,
N#CC1(Nc2ccccc2)CCN(CCc2ccccc2)CC1,inactive,
O=C(NCC1(N2CCCCC2)CCCCC1)c1cccc([N+](=O)[O-])c1,inactive,
CN1CCC(Nc2cccc(F)c2)CC1,inactive,
CCCOc1ccc(C(=O)NCC2(N(C)C)CCCCC2)cc1OC,inactive,
CC(C)c1ccc(NC2CCN(C(=O)OC(C)(C)C)CC2)cc1,inactive,
COc1ccc(CN(CCCl)CCCl)cc1Cl,inactive,
CN(C)c1cccc(C(=O)NCC2(N3CCCCC3)CCCCC2)c1,inactive,
COc1cc(OC)c(C(=O)NCC2(N(C)C)CCCCC2)cc1OC,inactive,
O=C(NCC1(N2CCCCC2)CCCCC1)c1ccc(Cl)nc1,inactive,
Cc1cc(C)cc(N(C(=O)c2ccccc2)C2CCN(C(=O)OC(C)(C)C)CC2)c1,inactive,
O=C(NCC1(N2CCOCC2)CCCCC1)c1cc2ccccc2o1,inactive,
O=C(OC1CN2CCC1CC2)C1c2ccccc2Oc2ccccc21 (centres undefined),,active: -12.2
N#CC1(Nc2ccccc2)CCN(Cc2ccccc2)CC1,inactive,

Compound,outcome,B-score
CCOC(=O)N1CCC(Nc2ccc(OC)cc2)CC1,inactive,
COc1ccc(C(=O)NCC2(N3CCCCC3)CCCCC2)cc1,inactive,
CC(C)(C)OC(=O)N1CCC(N(C(=O)c2ccccc2)c2ccc(F)cc2)CC1,inactive,
COc1ccc(C(=O)NCC2(N3CCCCC3)CCCCC2)c(OC)c1OC,inactive,
O=C(NCC1(N2CCCCC2)CCCCC1)c1ccc(=O)[nH]c1,inactive,
O=C(NCC1(N2CCCCC2)CCCCC1)c1cccs1,inactive,
CSc1ccccc1C(=O)NCC1(N2CCCCC2)CCCCC1,inactive,
COc1cc(C(=O)NCC2(N(C)C)CCCCC2)ccc1OC(F)F,inactive,
CCOC(=O)N1CCC(Nc2cccc(C)c2)CC1,inactive,
Cc1ccc(OCC(C)C)c(CN(CCCl)CCCl)c1,inactive,
CCOc1ccc(C)cc1CN(CCCl)CCCl,inactive,
O=C(NCC1(N2CCCCC2)CCCCC1)c1ccc(F)cc1,inactive,
CCOC(=O)N1CCC(Nc2ccc(F)cc2)CC1,inactive,
COc1ccc(NC2CCN(CCc3ccccc3)CC2)c(OC)c1,inactive,
CCN1CCC(Nc2cccc(F)c2)CC1,inactive,
CN(C)c1ccc(C(=O)NCC2(N3CCCCC3)CCCCC2)cc1,inactive,
COc1cc(OC)cc(C(=O)NCC2(N3CCCCC3)CCCCC2)c1,inactive,
Cc1ccc(C(=O)NCC2(N3CCCCC3)CCCCC2)o1,inactive,
Fc1ccccc1NC1CCN(Cc2ccccc2)CC1,inactive,
COc1cccc(C(=O)N(c2cc(C)cc(C)c2)C2CCN(C(=O)OC(C)(C)C)CC2)c1,inactive,

Compound,outcome,B-score
COc1cc(OC)cc(C(=O)NCC2(N3CCOCC3)CCCCC2)c1,inactive,
CCC(CO)(C(=O)OC1CN2CCC1CC2)c1ccccc1 (centres undefined),,active: -7.12
CN1CCC(Nc2ccc(Cl)cc2)CC1,inactive,
CCCOc1ccc(C)cc1CN(CCCl)CCCl,inactive,
CCOc1ncccc1C(=O)NCC1(N2CCOCC2)CCCCC1,inactive,
CN1CCC(Nc2ccc(F)c(Cl)c2)CC1,inactive,
CC(C)(C)OC(=O)N1CCC(Nc2ccccc2)CC1,inactive,
O=C(O)C1(Nc2ccccc2)CCN(Cc2ccccc2)CC1,inactive,
CCCOc1ccc(C(=O)NCC2(N(C)C)CCCCC2)cc1,inactive,
CCOC(=O)N1CCC(Nc2ccc(C)cc2)CC1,inactive,
N/C(=N\O)c1c(N)no[n+]1[O-],inactive,
O=C(OC1CN2CCC1CC2)C1c2ccccc2C=Cc2ccccc21 (centres undefined),,active: -7.24
CCc1cc(C(=O)NCC2(N3CCCCC3)CCCCC2)sc1C,inactive,
COc1ccc(C(=O)NCC2(N3CCOCC3)CCCCC2)cc1OC,inactive,
CN(C)C1(CNC(=O)c2cccc(C#N)c2)CCCCC1,inactive,
c1ccc(CN2CCC(Nc3ccccc3)CC2)cc1,inactive,
CCCN1CCC(Nc2cc(OC)cc(OC)c2)CC1,inactive,
N#Cc1ccc(C(=O)NCC2(N3CCCCC3)CCCCC2)cc1,inactive,
CC(C)(C)OC(=O)N1CCC(N(C(=O)c2ccccc2)c2ccc(Cl)cc2)CC1,inactive,
